Measured values: US6586461B1, “Prenyl transferase inhibitors” (Wayne State University, priority 1998, dated 2003)

Tested on: SCID mouse
Details: for Toxic response after 0.1 mg/kg: SCID mouse, 0.1 mg/kg injected; for Toxic response after 0.1 mg/kg / Adverse effects after further 1 mg/kg: after 48 hours; for Adverse effects during whole treatment incl. additional 10 mg/kg: same mouse, 0.1, 1 and 10 mg/kg in sequence; for Adverse effects after further 1 mg/kg: same mouse

| Substance | Toxic response after 0.1 mg/kg | Adverse effects during whole treatment incl. additional 10 mg/kg | Adverse effects after further 1 mg/kg |
| --- | --- | --- | --- |
| 3-Allyl 7,11-dimethyldodeca-2(Z),6(E),10-trien-1-ol [3-ally Farnesol] | No toxic response | No visible adverse effects | no adverse effects |
| 3-Vinyl-7,11-dimethyldodeca-2(Z),6(E),10-trien-1-ol [3-vinyl Farnesol] | No toxic response | No visible adverse effects | no adverse effects |
